In patent US11040968B2, “Pyridine derivative as ASK1 inhibitor and preparation method and use thereof” (FUJIAN COSUNTER PHARMACEUTICAL CO., LTD., priority 2017, dated 2021):

Assay: Pharmacokinetic characteristics study in mice (plasma, LC-MS/MS)
Conditions: C57BL/6 male mice; for Bioavailability: intragastric vs intravenous administration; for Exposure: plasma, intravenous or oral (intragastric) administration
Experimental: Experimental Example 2: Pharmacokinetic Characteristics Study
C57BL/6 male mice were used in this study. The drug concentration in the plasma of mice subjected to intravenous or oral administration of the test compound at different time points were quantitatively determine by LC/MS/MS method, respectively, in order to evaluate the pharmacokinetic characteristics of the tested drugs in mice.
A clear solution of the test compound was injected into C57BL/6 mice via the tail vein (overnight fasting, 7-10 weeks old), and the test compound was intragastrically administered to C57BL/6 mice (overnight fasting, 7-10 weeks old). 30 μL of the blood was collected from the jugular vein or the tail vein of the animals 0.0833, 0.25, 0.5, 1, 2, 4, 6, 8 and 24 hours after administration, and placed in the anticoagulant tube containing EDTA-K2, followed by centrifugation at 4° C. for 15 minutes to collect the plasma. The plasma concentration was determined by LC-MS/MS. The pharmacokinetic parameters were calculated by the non-compartment model linear logarithmic trapezoidal method using WinNonlin™ Version 6.3 (Pharsight, Mountain View, Calif.) pharmacokinetic software.

| Bioavailability [%] | Exposure [µM·h] | Compound |
| --- | --- | --- |
| 165 | 59.396 | Cc1cc(F)c(C(=O)Nc2cccc(-c3nnc4n3CCC[C@@H]4O)n2)cc1-n1cnc(C2CC2)c1 |
| 102 | 53.367 | Cc1cc(F)c(C(=O)Nc2cccc(-c3nnc4n3CCC[C@H]4O)n2)cc1-n1cnc(C2CC2)c1 |
